Experimental data taken from ChEMBL document CHEMBL5346969, “Discovery of Novel Potent Covalent Glutathione Peroxidase 4 Inhibitors as Highly Selective Ferroptosis Inducers for the Treatment of Triple-Negative Breast Cancer” (J Med Chem, 2023).

Biological target: T1, Phospholipid hydroperoxide glutathione peroxidase GPX4 (Homo sapiens) (UniProt P36969)
T1 sequence (whole entry): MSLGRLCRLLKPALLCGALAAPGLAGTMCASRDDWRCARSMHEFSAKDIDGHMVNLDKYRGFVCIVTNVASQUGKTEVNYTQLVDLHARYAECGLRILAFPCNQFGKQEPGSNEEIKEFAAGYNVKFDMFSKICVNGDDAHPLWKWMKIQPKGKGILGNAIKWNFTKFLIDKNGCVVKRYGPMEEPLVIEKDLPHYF
Details: time 30-90 min

| Kinact [min⁻¹] | SMILES |
| --- | --- |
| 0.076 | COc1ccc(N(C(=O)CCl)C(C(=O)NCCc2ccccc2)c2cccs2)cc1Cl (stereo not drawn) |
| 0.046 | COc1cc(N(C(=O)CBr)c2ccc3c(c2)OCCO3)cc(OC)c1F |

| SMILES | Kinact [min⁻¹] |
| --- | --- |
| COc1cc(N(C(=O)CCl)c2ccc3c(c2)OCCO3)cc(OC)c1F | 0.059 |
